Values quoted from earlier work in patent publication US20210315817A1, “C[…] SELF-EMULSION SYSTEMS FOR INFUSED COMPOSITIONS” (HEXO […]., priority 2018, published 2021).

Details: individual emulsifier HLB value

## d-alpha-tocopherol polyethyleneglycol 1000 succinate [Vitamin E TPGS]
  Emuls. HLB: 8.00
